Curated experimental data: Henry's law constant values

Values as listed in the OPERA 2.9 repository of K. Mansouri.

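The OPERA project collected these measurements from public sources as training and test data for property models. One number stands for a compound and property, with no spread given. Conditions of the individual experiments are not part of the data. Where a salt, mixture or single isomer is drawn, the source does not say that exactly this form was tested. Some upstream entries may be estimates or bounds without being marked so.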

Henry's law constant (air-water partitioning) is log10 of atm·m3/mol, nominally at 25 °C.

SMILES | name | log Henry constant (log10 atm·m3/mol)
CCOc1ccc2c(c1)C(C)=CC(C)(C)N2 | Ethoxyquin | -6.359
COCCOc1ccccc1S(=O)(=O)NC(=O)Nc1nc(OC)nc(OC)n1 | Cinosulfuron | -11.01
CCCCC(CC)CN (configuration not stated) | 2-Ethylhexylamine | -4.021
COC(=O)c1cc(Cl)ccc1Cl | Methyl 2,5-dichlorobenzoate | -4.794
CCCCCCCC/C=C\CCCCCCCCCCCCC | cis-Tricos-9-ene | -10.28
Cc1ccc2c(c1)[C@H](Nc1nc(N)nc(C(C)F)n1)[C@@H](C)C2 (stereo not given in full) | Indaziflam | -10.58
COc1cc(OC)nc(NC(=O)NS(=O)(=O)N(C)S(C)(=O)=O)n1 | Amidosulfuron | -8.288
O=C(Nc1ccc(F)cc1)c1cccc(Oc2cccc(C(F)(F)F)c2)n1 | Picolinafen | -7.802
CCC(=O)C1C(=O)CC(C(=O)O)CC1=O (configuration not stated) | Prohexadione | -9.722
C#CCOc1cc(-n2nc(C(C)(C)C)oc2=O)c(Cl)cc1Cl | Oxadiargyl | -8.047
O=C(O)C(F)(F)C(F)(F)C(F)(F)F | Perfluorobutanoic acid | -4.912
CCOC(=O)[C@@H](C)Oc1ccc(Oc2cnc3cc(Cl)ccc3n2)cc1 | Quizalofop-p-ethyl | -9.18
O=C(O)COc1ccc2ccccc2c1 | 2-Naphthoxyacetic acid | -8.98
CNC(=S)NN | N-Methylhydrazinecarbothioamide | -11.75
O=C(NC(=O)c1c(F)cccc1F)Nc1cc(C(F)(F)F)cc(C(F)(F)F)c1Cl | Bistrifluron | -6.404
Cc1ccc(NS(=O)(=O)N(C)C)cc1 | N,N-Dimethyl-N'-p-tolylsulphamide | -9.119
O=C(O)c1cccc2cc(Cl)cnc12 | 3-Chloroquinoline-8-carboxylic acid | -3.153
O=C(O)c1c(F)cccc1F | 2,6-Difluorobenzoic acid | -6.83
Cc1nn(C)c(OCC(=O)c2ccccc2)c1C(=O)c1ccc(Cl)cc1Cl | Pyrazoxyfen | -9.673
CCN1CCCCC1 | Piperidine, 1-ethyl- | -2.501
C=CCCCCCCCCCC | 1-Dodecene | -0.608
CN(C)C(=O)SCCCCOc1ccccc1 | Fenothiocarb | -7.86
O=C(CCCCC(=O)N(CCO)CCO)N(CCO)CCO | N,N,N',N'-Tetrakis(2-hydroxyethyl)hexanediamide | -8.097
Cc1nn(C)c(F)c1C(=O)Nc1ccccc1C(C)CC(C)C (configuration not stated) | Penflufen | -9.985
Nc1ccc(S(N)(=O)=O)cc1 | Sulfanilamide | -9.824
Clc1cc(Cl)cc(C2(CC(Cl)(Cl)Cl)CO2)c1 (configuration not stated) | Tridiphane | -6.388
CC(C)OC(=O)[C@@H](C)N(C(=O)c1ccccc1)c1ccc(F)c(Cl)c1 | Flamprop M-isopropyl | -7.594
CC1CN(C2CCCCCCCCCCC2)CC(C)O1 (configuration not stated) | Dodemorph | -5.119
CN(C)S(=O)(=O)Nc1ccccc1 | Sulfamide, N,N-dimethyl-N'-phenyl- | -5.258
O=C(O)c1c(Cl)ccc(Cl)c1Cl | 2,3,6-Trichlorobenzoic acid | -7.673

Excerpt, the final 4 entries:

| SMILES | name | log Henry constant (log10 atm·m3/mol) |
|---|---|---|
| CC(C)OC(=O)[C@@H](C)N(C(=O)c1ccccc1)c1ccc(F)c(Cl)c1 | Flamprop M-isopropyl | -7.594 |
| CC1CN(C2CCCCCCCCCCC2)CC(C)O1 (configuration not stated) | Dodemorph | -5.119 |
| CN(C)S(=O)(=O)Nc1ccccc1 | Sulfamide, N,N-dimethyl-N'-phenyl- | -5.258 |
| O=C(O)c1c(Cl)ccc(Cl)c1Cl | 2,3,6-Trichlorobenzoic acid | -7.673 |